# Experimental data published in ChEMBL document CHEMBL1687933, “Synthesis and pharmacological evaluation of fluorine-containing D₃ dopamine receptor ligands” (J Med Chem, 2011).
# Species on record: Homo sapiens
# Assay: Selectivity ratio of Ki for human D2 receptor to Ki for human D3 receptor
smiles,measurement,value
O=C(NCCCCN1CCN(c2ccccc2OCCF)CC1)c1ccc(OCCOCCF)cc1,Ratio Ki,5.7
